Molecular target: hERG (Homo sapiens, UniProt Q12809)
Experiment: Manual patch clamp, hERG channel current in HEK-293 cells

Sequences of proteins named here, by UniProt entry; tags and fusion partners are left off. A change or cut given only in a name is not applied to a line headed by its entry.
UniProt Q12809: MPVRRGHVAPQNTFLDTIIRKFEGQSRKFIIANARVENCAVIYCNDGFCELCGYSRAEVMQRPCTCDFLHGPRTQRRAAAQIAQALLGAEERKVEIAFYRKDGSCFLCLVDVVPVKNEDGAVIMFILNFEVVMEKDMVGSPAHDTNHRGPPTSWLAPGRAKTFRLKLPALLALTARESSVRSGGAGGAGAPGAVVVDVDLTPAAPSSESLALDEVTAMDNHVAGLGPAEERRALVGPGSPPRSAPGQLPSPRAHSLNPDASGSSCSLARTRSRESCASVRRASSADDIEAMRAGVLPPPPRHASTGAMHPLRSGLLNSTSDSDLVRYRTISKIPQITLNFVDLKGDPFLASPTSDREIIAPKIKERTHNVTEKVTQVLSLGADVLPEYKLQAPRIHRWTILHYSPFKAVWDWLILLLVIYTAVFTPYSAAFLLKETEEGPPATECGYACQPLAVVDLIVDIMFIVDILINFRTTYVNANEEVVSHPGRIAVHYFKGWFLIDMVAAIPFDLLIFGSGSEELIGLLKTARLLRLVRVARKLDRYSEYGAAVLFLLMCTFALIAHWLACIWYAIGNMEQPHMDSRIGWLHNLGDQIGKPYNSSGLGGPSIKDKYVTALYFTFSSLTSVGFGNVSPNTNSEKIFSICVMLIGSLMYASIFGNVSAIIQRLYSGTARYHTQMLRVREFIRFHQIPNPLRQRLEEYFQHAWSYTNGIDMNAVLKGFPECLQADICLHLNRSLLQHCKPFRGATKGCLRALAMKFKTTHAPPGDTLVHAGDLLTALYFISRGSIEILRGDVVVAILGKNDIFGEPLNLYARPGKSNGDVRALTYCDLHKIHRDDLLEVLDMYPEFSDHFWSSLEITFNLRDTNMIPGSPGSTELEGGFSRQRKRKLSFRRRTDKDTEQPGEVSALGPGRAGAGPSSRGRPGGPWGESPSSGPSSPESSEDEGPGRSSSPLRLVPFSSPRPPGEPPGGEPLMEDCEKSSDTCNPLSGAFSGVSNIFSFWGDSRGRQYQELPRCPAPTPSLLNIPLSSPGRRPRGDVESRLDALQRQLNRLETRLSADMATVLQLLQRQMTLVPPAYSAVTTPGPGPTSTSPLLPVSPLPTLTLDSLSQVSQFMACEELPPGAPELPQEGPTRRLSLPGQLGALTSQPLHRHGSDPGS

## C=C(C)C(=O)Nc1ccc(-c2c(-c3ccc(Oc4nccc(C)n4)c(F)c3)c3c(N)ncnc3n2C)cc1 [Control compound I, reference compound]
  IC50: 6.05 µM

Reference: EP4553077A1 (Kinoteck Therapeutics Co., Ltd, priority 2022, dated 2024)
